Assay results taken from PubChem BioAssay AID504652 (National Center for Advancing Translational Sciences (NCATS), 2011).
Several values for one entry are separate records, joined by “and”; a condition that tells them apart may be missing. Identical values can stand only once. The entries are a selection whose mix differs from that of the whole data set. Some tests of the compounds listed are not included; inactive here does not mean inactive elsewhere. Activity calls are given as the source filed them. No stated cut-off is given here; in the data, active means activity change below about -30%; inactive means the rest.

Protein sequences, listed by entry. Tags and fused reporters are not part of them.
UniProt P21728, whole entry: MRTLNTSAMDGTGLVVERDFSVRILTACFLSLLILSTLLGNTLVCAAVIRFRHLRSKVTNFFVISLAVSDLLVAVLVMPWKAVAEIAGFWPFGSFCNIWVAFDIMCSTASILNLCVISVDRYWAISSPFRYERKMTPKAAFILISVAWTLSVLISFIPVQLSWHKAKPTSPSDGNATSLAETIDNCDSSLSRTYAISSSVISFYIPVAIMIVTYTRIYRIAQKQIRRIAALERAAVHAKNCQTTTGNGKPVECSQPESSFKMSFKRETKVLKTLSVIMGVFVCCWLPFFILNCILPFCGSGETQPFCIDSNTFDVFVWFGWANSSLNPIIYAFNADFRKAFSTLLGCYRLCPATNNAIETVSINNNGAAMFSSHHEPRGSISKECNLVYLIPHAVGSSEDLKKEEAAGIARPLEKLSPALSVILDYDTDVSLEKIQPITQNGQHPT

Molecular target: D(1A) dopamine receptor (Homo sapiens) (UniProt P21728)
Experiment: Antagonist of Human D 1 Dopamine Receptor: qHTS
Settings: HEK293 TREx D1 cells, calcium flux, dopamine EC80; at 10 µM; hits give low values
Text: Dopamine receptors (DARs) are involved in the etiology and/or therapy of a number of neuropsychiatric and endocrine disorders. For instance, all receptor-based antiparkinsonian drugs work via stimulating the […] DAR subtype whereas all FDA-approved antipsychotic agents are antagonists of this receptor. […] There are three different types of allosteric modulators that we are seeking, two of which will stimulate or augment receptor signaling, allosteric agonists and potentiators, while the third, allosteric antagonists, will attenuate receptor signaling. The present primary screening assay measures compound antagonism after an EC80 addition of dopamine by tracking calcium flux in a […], inducible Hek293 Trex D1 cell line. NIH Chemical Genomics Center [NCGC] NIH Molecular Libraries Probe Centers Network [MLPCN] MLPCN Grant: NS064831-01 Assay Submitter (PI): David Sibley
Freshly passaged cells are plated in 1536 well black, clear bottom plates at a density of 4000 cells/well in 3 ul of complete media containing 1x tetracycline inducer. After an overnight incubation at 30 C in 5% CO2, cells are loaded with 2 ul of the no wash Calcium Assay Kit (ABD Bioquest) and incubated at room temperature for 30 to 90 minutes. Agonist read: A 10 cycle (1 second/cycle) baseline measurement is taken and then the FDSS online 1536 pintool delivers 23 nl of compound library (as well as dopamine controls) to the plate. The plate is measured for kinetically at 1 cycle/sec for 180 seconds. Following the 180 second read, 1 ul of an EC80 (negative modulation assay) is delivered by an onboard pipette head. Measurements are taken kinetically for an additional 180 seconds.
On the % scale 0 is the no-effect control and ±100 the full control effect.

SMILES	activity change, negative = inhibition
O=C(NCC1(N2CCCCC2)CCCCC1)c1cc(F)c(F)cc1Cl	inactive: -6.21%
C=CCN1CCN(CCOC(=O)C(O)(c2ccccc2)c2ccccc2)CC1	inactive: 8.65%
O=C(NCC1(N2CCCCC2)CCCCC1)c1cccc(Br)c1	inactive: 2.56%
Cc1cc(C(=O)NCC2(N3CCCCC3)CCCCC2)ccc1[N+](=O)[O-]	inactive: 7.06%
CCN1CCCC(OC(=O)C2(O)c3ccccc3C=Cc3ccccc32)C1 (stereo not drawn)	inactive: -6.2%
CCOc1cccc(C(=O)NCC2(N(C)C)CCCCC2)c1	inactive: -4.95%
COc1ccc(C(=O)NCC2(N(C)C)CCCCC2)cc1	inactive: -3.54%
CN(C)C1CCCC1OC(=O)C(O)(c1ccccc1)c1ccccc1 (stereo not drawn)	inactive: -5.66%
CN(C)c1ccc(C(=O)NCC2(N(C)C)CCCCC2)cc1	inactive: -2.68%
CN(C)C1(CNC(=O)c2ccccc2[N+](=O)[O-])CCCCC1	inactive: 7.23%
Cc1ccccc1C(=O)NCC1(N2CCCCC2)CCCCC1	inactive: 14.7%
CCCCOc1ccccc1C(=O)NCC1(N(C)C)CCCCC1	inactive: -1.35%
CC(C)N1C(=O)CC2(CCN(CCOC(=O)C(O)(c3ccccc3)c3ccccc3)CC2)C1=O	inactive: -7.26%
COc1cc(SC)ccc1C(=O)NCC1(N(C)C)CCCCC1	inactive: -6.58%
CCN(CC)CC(C)C(C)OC(=O)C(O)(c1ccccc1)c1ccccc1 (stereo not drawn)	inactive: -7.46%
CN(C)C1(CNC(=O)c2cccc(Cl)c2)CCCCC1	inactive: -7.53%
CN(C)C1(CNC(=O)c2ccccc2F)CCCCC1	inactive: 1.96%

SMILES	activity change, negative = inhibition
Cc1ccc(C(=O)NCC2(N3CCCCC3)CCCCC2)cc1	inactive: -4.58%
O=C(NCC1(N2CCCCC2)CCCCC1)c1cc([N+](=O)[O-])ccc1Cl	inactive: 6.97%
COc1ccc(Br)c(C(=O)NCC2(N3CCCCC3)CCCCC2)c1	inactive: 0.873%
Cc1cccc(C(=O)NCC2(N(C)C)CCCCC2)c1	inactive: 9.66%
COc1cc(C(=O)NCC2(N(C)C)CCCCC2)cc(OC)c1OC	inactive: -4.52%
CN(C)c1cccc(C(=O)NCC2(N(C)C)CCCCC2)c1	inactive: 0.275%
CC(C)Oc1ccc(C(=O)NCC2(N(C)C)CCCCC2)cc1	inactive: -4.35% and inactive: 7.2%
O=C(OC1CN2CCC1CC2)C(CO)(c1ccccc1)c1ccccc1 (stereo not drawn)	inactive: 3.52%
COc1cccc(C(=O)NCC2(N3CCOCC3)CCCCC2)c1	inactive: -6.87%
CC(C)COc1ccc(C(=O)NCC2(N(C)C)CCCCC2)cc1	inactive: 1.91%
COc1ccc(C(=O)NCC2(N(C)C)CCCCC2)cc1Cl	inactive: 4.83%
COc1ccc(Cl)cc1C(=O)NCC1(N(C)C)CCCCC1	inactive: -0.252%
COc1cccc(C(=O)NCC2(N3CCCCC3)CCCCC2)c1	inactive: -16.1%
O=C(NCC1(N2CCCCC2)CCCCC1)c1cccc(Cl)c1	inactive: 0.29%
CN(C)C1(CNC(=O)c2ccc(Br)cc2)CCCCC1	inactive: -0.345%
COc1cc(C(=O)NCC2(N(C)C)CCCCC2)c([N+](=O)[O-])cc1OC	inactive: -13.1%
